# According to IntAct's records for PubMed 21220120:
# Target: rbbp5_human RBBP5 (UniProt Q15291)
row,Substance,effect of a mutation on the interaction
1,WD repeat-containing protein 5 (Homo sapiens) (from UniProt P61964) Q289A,decreasing interaction
2,WD repeat-containing protein 5 (Homo sapiens) (from UniProt P61964) N225A,disrupting interaction
3,WD repeat-containing protein 5 (Homo sapiens) (from UniProt P61964) L240K,disrupting interaction
